Experimental data published in EP0308189B1, “Skin cleansing toilet bar with low moisture content” (THE PROCTER & GAMBLE COMPANY, priority 1987, dated 1989).

Test system: skin epidermis

## sodium coco glyceryl ether sulfonate [AGS]
  Relative Skin Barrier Penetration Value: 9
  Total mg Water Penetrating the Skin in 24 Hours: 22.8 ± 7.9 mg
  mildness to the skin: mild and relatively nonirritating to the skin
